Test results published in ChEMBL document CHEMBL4020816.

The chains behind the UniProt entries cited, without tags or fusion partners.
UniProt P21554, whole entry: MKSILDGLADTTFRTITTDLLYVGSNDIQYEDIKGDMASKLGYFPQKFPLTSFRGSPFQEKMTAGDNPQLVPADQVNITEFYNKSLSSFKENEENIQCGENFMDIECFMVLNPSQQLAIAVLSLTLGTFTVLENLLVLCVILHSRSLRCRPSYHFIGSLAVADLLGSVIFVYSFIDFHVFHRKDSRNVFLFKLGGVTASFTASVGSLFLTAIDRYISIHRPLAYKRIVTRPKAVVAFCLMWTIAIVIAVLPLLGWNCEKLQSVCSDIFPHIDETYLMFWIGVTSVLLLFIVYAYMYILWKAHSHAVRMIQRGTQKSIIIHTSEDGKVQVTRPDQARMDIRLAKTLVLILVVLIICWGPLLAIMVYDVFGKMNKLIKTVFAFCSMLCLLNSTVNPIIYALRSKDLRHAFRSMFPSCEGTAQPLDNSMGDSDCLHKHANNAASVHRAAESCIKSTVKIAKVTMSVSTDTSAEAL

Columns and labels:
Cannabinoid receptor 1 [1] = target: T1, Cannabinoid receptor 1 (Homo sapiens, UniProt P21554); test: Displacement of [3H]CP55940 from recombinant human CB1 receptor expressed in beta-galactosidase expressing CHOK1 cell membranes assessed as kinetic rate index by measuring ratio of radioligand binding at 30 mins to 240 mins by scintillation spectrometry
Cannabinoid receptor 1 [2] = target: T1, Cannabinoid receptor 1; test: Antagonist activity at recombinant human CB1 receptor expressed in HEK293 cell membranes assessed as inhibition of CP55940-induced [35S]GTPgammaS binding preincubated for 1 hr followed by CP55940 addition and subsequent incubation with [35S]GTPgammaS measured after 30 mins by scintillation spectrometry; format: functional
Cannabinoid receptor 1 [3] = target: T1, Cannabinoid receptor 1; test: Displacement of [3H]CP55940 from recombinant human CB1 receptor expressed in beta-galactosidase expressing CHOK1 cell membranes after 60 mins by scintillation spectrometry

Cc1c(C(=O)NN2CCCCC2)nc(-c2ccc(Cl)cc2Cl)n1-c1ccc(OCc2ccccc2)cc1
Ratio (Cannabinoid receptor 1 [1]): 0.9 | IC50 (Cannabinoid receptor 1 [2]): 20 nM | Ki (Cannabinoid receptor 1 [3]): 6.28 nM
